# Source: US8710045B2, “Agents for preventing and treating disorders involving modulation of the ryanodine receptors” (The Trustees of Columbia University in the City of New York, priority 2004, dated 2014)
# Sequences of proteins named here, by UniProt entry; tags and fusion partners are left off.
# UniProt Q92736, whole entry: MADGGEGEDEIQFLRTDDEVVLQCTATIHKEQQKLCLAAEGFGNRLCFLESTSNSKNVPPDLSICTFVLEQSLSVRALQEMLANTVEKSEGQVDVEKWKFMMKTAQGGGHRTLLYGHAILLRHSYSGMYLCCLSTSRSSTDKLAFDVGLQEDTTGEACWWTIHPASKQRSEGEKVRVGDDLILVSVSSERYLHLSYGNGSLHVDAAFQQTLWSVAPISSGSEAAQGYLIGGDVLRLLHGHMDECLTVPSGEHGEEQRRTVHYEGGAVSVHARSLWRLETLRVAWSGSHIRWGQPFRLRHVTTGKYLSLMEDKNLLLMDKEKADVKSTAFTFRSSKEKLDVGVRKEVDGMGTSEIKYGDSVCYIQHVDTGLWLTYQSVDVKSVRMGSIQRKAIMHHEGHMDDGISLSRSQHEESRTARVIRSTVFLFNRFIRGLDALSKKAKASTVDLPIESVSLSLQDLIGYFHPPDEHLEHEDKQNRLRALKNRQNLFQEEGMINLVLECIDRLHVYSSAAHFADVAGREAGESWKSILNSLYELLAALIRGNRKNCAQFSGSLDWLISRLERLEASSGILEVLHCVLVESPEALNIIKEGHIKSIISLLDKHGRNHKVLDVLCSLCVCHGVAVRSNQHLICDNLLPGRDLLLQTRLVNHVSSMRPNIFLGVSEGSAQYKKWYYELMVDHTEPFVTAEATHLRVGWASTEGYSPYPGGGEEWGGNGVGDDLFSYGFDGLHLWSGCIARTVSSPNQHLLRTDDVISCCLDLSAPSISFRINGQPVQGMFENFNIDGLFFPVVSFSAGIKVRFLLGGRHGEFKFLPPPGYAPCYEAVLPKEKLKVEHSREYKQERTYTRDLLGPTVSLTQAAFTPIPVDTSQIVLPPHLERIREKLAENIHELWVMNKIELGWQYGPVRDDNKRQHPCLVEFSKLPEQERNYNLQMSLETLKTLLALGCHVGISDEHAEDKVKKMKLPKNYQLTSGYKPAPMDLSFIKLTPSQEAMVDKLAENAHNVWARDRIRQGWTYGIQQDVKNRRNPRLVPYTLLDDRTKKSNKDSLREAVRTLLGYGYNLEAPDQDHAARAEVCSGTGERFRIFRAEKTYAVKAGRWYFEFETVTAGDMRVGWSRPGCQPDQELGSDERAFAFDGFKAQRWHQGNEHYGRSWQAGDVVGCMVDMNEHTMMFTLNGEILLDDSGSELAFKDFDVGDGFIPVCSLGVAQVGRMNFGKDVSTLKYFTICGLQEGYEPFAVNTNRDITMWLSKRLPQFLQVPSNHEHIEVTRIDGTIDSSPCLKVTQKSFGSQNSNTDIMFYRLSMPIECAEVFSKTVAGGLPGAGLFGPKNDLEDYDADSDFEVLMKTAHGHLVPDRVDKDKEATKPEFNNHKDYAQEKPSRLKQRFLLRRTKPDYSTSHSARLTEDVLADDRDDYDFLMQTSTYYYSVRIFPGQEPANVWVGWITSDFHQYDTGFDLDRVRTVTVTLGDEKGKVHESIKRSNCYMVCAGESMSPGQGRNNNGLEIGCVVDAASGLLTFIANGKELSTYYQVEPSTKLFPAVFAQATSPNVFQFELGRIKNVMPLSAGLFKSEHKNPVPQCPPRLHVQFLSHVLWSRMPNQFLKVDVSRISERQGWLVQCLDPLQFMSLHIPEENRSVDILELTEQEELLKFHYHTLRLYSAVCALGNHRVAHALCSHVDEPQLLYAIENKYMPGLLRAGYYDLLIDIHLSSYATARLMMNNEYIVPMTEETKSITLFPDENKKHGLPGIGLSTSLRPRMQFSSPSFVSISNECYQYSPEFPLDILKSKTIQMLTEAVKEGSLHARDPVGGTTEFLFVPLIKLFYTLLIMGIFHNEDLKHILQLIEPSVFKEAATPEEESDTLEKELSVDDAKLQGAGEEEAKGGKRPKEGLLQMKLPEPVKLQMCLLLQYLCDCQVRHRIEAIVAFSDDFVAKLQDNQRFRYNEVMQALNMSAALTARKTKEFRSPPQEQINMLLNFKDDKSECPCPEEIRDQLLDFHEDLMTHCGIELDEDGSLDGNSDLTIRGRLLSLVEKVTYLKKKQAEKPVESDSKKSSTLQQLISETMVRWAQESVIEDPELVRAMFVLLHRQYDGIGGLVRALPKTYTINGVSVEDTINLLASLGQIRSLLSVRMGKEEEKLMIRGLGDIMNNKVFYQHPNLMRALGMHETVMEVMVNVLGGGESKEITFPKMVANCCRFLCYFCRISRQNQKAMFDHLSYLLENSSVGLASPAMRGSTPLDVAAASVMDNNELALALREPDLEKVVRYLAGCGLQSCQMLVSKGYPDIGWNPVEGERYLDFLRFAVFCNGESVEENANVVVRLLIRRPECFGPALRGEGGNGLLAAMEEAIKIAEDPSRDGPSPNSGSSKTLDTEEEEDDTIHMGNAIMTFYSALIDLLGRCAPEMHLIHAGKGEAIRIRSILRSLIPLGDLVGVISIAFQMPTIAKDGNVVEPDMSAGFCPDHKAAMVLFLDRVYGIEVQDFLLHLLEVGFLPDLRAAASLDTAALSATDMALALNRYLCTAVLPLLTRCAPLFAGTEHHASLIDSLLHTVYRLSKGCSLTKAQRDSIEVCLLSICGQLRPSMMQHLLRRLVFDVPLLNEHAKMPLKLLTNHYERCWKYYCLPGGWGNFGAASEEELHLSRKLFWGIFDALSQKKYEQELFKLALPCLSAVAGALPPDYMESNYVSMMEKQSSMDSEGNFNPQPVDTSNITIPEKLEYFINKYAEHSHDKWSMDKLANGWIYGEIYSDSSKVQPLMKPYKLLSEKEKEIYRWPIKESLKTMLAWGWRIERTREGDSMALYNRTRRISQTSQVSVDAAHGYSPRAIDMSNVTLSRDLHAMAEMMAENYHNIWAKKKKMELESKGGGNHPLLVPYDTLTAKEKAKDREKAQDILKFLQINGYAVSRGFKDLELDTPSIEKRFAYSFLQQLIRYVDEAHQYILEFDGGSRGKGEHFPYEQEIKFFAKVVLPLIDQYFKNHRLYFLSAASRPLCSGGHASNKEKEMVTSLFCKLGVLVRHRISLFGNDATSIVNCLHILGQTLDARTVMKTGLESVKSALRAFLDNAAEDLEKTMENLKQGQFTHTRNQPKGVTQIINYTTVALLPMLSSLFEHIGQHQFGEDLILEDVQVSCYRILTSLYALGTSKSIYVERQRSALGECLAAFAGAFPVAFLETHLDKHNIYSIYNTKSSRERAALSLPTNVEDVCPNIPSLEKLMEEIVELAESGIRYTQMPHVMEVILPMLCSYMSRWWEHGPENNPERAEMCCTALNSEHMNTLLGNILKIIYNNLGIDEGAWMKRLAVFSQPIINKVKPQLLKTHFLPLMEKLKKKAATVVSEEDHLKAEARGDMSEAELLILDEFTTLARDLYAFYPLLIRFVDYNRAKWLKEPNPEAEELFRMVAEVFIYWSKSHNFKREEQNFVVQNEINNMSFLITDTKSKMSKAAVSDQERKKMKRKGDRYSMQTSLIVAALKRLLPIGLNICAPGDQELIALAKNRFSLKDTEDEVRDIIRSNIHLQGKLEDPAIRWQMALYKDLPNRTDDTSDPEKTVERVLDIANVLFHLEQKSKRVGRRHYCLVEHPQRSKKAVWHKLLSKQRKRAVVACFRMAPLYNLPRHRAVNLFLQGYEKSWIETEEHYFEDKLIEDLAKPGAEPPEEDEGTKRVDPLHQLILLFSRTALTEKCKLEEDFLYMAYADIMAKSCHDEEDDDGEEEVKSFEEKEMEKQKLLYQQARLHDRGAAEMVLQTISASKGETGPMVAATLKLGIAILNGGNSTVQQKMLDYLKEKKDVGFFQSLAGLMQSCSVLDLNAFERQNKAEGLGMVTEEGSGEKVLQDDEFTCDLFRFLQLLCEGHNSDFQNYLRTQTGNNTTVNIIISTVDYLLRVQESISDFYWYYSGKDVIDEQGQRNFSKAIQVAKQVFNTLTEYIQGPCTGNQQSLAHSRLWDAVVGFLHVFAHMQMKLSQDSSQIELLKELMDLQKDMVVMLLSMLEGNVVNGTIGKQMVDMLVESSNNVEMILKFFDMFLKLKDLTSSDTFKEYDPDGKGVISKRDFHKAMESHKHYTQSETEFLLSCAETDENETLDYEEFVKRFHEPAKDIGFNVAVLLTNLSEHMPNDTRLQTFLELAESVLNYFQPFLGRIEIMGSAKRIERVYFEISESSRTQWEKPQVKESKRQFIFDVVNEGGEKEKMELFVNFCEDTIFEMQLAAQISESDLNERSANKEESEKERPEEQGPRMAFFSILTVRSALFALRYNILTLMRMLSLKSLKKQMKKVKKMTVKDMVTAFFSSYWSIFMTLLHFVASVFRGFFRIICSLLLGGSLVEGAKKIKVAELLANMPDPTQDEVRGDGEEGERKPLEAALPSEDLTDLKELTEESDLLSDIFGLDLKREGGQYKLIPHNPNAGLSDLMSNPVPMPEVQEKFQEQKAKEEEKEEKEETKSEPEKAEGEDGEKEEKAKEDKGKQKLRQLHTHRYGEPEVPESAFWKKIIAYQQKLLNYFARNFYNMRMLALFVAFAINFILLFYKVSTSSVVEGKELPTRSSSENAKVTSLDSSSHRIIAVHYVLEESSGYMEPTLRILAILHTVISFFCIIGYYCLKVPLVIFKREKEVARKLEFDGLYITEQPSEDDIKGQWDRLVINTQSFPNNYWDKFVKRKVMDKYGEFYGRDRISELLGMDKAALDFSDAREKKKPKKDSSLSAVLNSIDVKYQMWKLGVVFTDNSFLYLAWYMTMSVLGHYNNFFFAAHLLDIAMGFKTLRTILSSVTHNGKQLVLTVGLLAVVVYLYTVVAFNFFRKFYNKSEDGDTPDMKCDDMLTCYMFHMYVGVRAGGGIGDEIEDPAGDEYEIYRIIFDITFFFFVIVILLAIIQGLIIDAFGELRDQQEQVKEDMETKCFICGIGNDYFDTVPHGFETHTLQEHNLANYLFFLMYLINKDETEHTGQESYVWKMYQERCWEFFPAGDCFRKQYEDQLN
# Molecular target: T1, PKA-phosphorylated RyR2 (Homo sapiens, UniProt Q92736)
# T1 construct: from tissue
# Test: FKBP12.6 rebinding assay: FKBP12.6 binding to PKA-phosphorylated RyR2 in cardiac SR
# Description: Samples are centrifuged at 95,000 g for 10 min and the pellets are washed three times in 0.2 ml imidazole buffer. The final pellets are pooled and resuspended in imidazole buffer (final concentration≈10 μg/μl). […] Samples then are centrifuged at 100,000 g for 10 minutes and pellets washed 3 times with imidizol buffer. […] Immunoblots are developed using an anti-FKBP antibody (1:3,000 dilution). […] The intracellular solution contains (in mM): CsCl, 60; CaCl2, 1; EGTA, 11; MgCl2, 1; K2ATP, 5; HEPES, 10; aspartic acid, 50; pH 7.4 (CsOH). Under these conditions, it is expected that the measured current was carried by Ba^2+ primarily through L-type calcium channels which is referred to as ICa,L. Drugs are applied by a local solution changer and reach the cell membrane within 1 s.
# The FKBP12.6 rebinding assay described above is used to determine the amount of FKBP12.6 binding to PKA-phosphorylated RyR2 at various concentrations (0.5-1000 nM) of the compounds shown. EC50 values are calculated using Michaelis-Menten curve fitting.
# The EC50 values are calculated using Michaelis-Menten curve fitting.
smiles,measurement,value
COc1ccc2c(c1)CN(C)CCS2 [S107],EC50,190 nM
